Columns and labels:
[1] = system: PC-3 PIP/flu tumor-bearing mice; test: Biodistribution studies in PC-3 PIP/flu tumor-bearing mice
human plasma proteins = test: Ultrafiltration assay, binding to human plasma proteins; details: different dilutions of human plasma

SMILES	Liver ([1]; 4 h p.i.)	Stomach ([1]; 4 h p.i.)	Heart ([1]; 6 h p.i.)	Muscle ([1]; 6 h p.i.)	Stomach ([1]; 6 h p.i.)	half-maximum binding (B50), [HSA]-to-[radioligand] ratio (human plasma proteins)	Heart ([1]; 4 h p.i.)	Kidneys ([1]; 4 h p.i.)	PC-3 flu Tumor ([1]; 4 h p.i.)	Spleen ([1]; 4 h p.i.)	Kidneys ([1]; 24 h p.i.)	Liver ([1]; 24 h p.i.)	Salivary glands ([1]; 24 h p.i.)
Cc1ccc(CCCC(=O)NCCCCC(NC(=O)CN2CCN(CC(=O)O)CCN(CC(=O)O)CCN(CC(=O)O)CC2)C(=O)NCC2CCC(C(=O)NC(Cc3ccc4ccccc4c3)C(=O)NCCCCC(NC(=O)NC(CCC(=O)O)C(=O)O)C(=O)O)CC2)cc1 (centres unmarked) [44Sc-PSMA-ALB-06, metal not drawn]	3.51 ± 0.44 % IA/g	1.91 ± 0.16 % IA/g	5.17 ± 0.17 % IA/g	1.83 ± 0.07 % IA/g	1.98 ± 0.26 % IA/g	–	–	–	–	–	–	–	–
Cc1ccc(CCCC(=O)NCCCCC(NC(=O)CN2CCN(CC(=O)O)CCN(CC(=O)O)CCN(CC(=O)O)CC2)C(=O)NCC2CCC(C(=O)NC(Cc3ccc4ccccc4c3)C(=O)NCCCCC(NC(=O)NC(CCC(=O)O)C(=O)O)C(=O)O)CC2)cc1 (centres unmarked) [^64Cu-PSMA-ALB-06, metal not drawn]	–	–	–	–	–	770	–	–	–	–	–	–	–
Cc1ccc(CCCC(=O)NCCCCC(NC(=O)CN2CCN(CC(=O)O)CCN(CC(=O)O)CCN(CC(=O)O)CC2)C(=O)NCC2CCC(C(=O)NC(Cc3ccc4ccccc4c3)C(=O)NCCCCC(NC(=O)NC(CCC(=O)O)C(=O)O)C(=O)O)CC2)cc1 (centres unmarked) [^177Lu-PSMA-ALB-06, metal not drawn]	3.45 ± 1.50 % IA/g	–	–	–	–	–	5.41 ± 0.82 % IA/g	18.9 ± 0.77 % IA/g	3.16 ± 0.39 % IA/g	3.14 ± 0.29 % IA/g	10.5 ± 2.13 % IA/g	0.50 ± 0.11 % IA/g	0.52 ± 0.11 % IA/g
